Results: patent US20070148136A1, “Methods of using ammonia oxidizing bacteria” (priority 2003, published 2007)
Read-outs that look alike come from different tables or passages of the source.

For linear alkylbenzene sulfonates [LAS], the “LAS concentration at the solubility limit of Ca(LAS)2” value (LAS MW 339, Ksp 1.8 e-11) was 26 ppm and the “LAS concentration at the solubility limit of Ca(LAS)2” value (calcium 3 mM/L as in human sweat, LAS MW 343) was 18 ppm.
